Earlier results on one substance are cited in patent US10632150B1, “Potassium phosphates composition for injection” (CMP Development LLC, priority 2018, dated 2020).

The conditions of the series: reported value.

For potassium dibasic phosphate [KDP], the solubility in water entry is on record as “about 900 mg/mL”.
